# Assay results taken from ChEMBL document CHEMBL1240533, “Selectivity and potency of cyclin-dependent kinase inhibitors” (AAPS J, 2006).
# Chains of the proteins cited; added tags and fusions are not shown. Lines headed by an entry give the natural chain unless they say otherwise; changes in a name come on top.
# UniProt P11802: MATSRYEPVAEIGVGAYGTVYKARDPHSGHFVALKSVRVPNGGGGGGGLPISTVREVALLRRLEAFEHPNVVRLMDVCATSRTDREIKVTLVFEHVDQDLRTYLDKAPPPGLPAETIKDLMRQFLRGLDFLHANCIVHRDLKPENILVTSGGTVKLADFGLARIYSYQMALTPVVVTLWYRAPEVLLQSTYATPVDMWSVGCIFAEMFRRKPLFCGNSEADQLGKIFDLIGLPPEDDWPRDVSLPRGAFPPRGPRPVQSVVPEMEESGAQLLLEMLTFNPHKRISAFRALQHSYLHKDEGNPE
# Target: Cyclin-dependent kinase 4 (Homo sapiens, UniProt P11802)
structure (smiles),measurement,value
Cn1cnc2c(NCc3ccccc3)nc(NCCO)nc21 [OLOMOUCINE],IC50,> 100 µM
